# Apparent affinities of Ab-14 variants for a coronavirus HR2 peptide

Reference: Li et al. 2023, doi:10.1038/s41467-023-39022-2. File: FLAb, binding data.

Binding partner: SARS-CoV-2 spike HR2 peptide, sequence PDVDLGDISGINAS.

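The starting antibody came from a phage panning campaign against this peptide. This is the validation round: designs drawn from the data on random variants, tested in the same kind of assay. Several design methods are mixed in this list. The assay is AlphaSeq: two haploid yeast populations carry antibody and antigen on their surface. Binding brings cells together so that they mate, and sequencing counts the barcode pairs among the diploids. The ratio of observed to expected reads was calibrated, replicate by replicate, on BCL2-family standards whose Kd was known from biolayer interferometry. Each pool was mated in six replicate cultures.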

Parent scFv Ab-14: VH joined to VL by three GGGGS repeats. Changes lie in the light chain CDRs alone.
VH: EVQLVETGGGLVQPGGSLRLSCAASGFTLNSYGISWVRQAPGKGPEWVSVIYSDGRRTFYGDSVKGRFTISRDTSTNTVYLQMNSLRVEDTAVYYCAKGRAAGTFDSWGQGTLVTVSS
VL: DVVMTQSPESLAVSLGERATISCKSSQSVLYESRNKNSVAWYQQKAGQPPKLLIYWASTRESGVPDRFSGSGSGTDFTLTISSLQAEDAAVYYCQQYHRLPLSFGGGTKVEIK

Substitutions are numbered in sequence along the VL above, starting at 1 (not Kabat).
Variants here have at most six changes.
Values are apparent Kd, the geometric mean of the replicates that gave a signal; lower means stronger binding.
"nd" marks a missing value. The strain was present, yet no cells mated with the target were sequenced in any replicate, which points to weak or no binding.
The range of this assay differs from that of the first round, and the authors advise against merging the two.

* R34A/S62N = 43 nM (6 of 6 replicates; controls 0 of 18)
* S25F/S28Q/N35T/S38Q/W56N/A57F = 5.8 nM (6 of 6 replicates; controls 0 of 18)
* S25L/V29K/S38N/W56G = 2.4 nM (6 of 6 replicates; controls 1 of 18)
* S25L/W56E/Q96D/S103M = 1.0 nM (6 of 6 replicates; controls 0 of 18)
* L30D/E32T/W56G/S62E/H98R = 1.3 nM (6 of 6 replicates; controls 2 of 18)
* S25F/W56N/S58Q/E61L/S62W = 1.4 nM (6 of 6 replicates; controls 0 of 18)
* V29D = 27 nM (6 of 6 replicates; controls 0 of 18)
* S33T/N37R = 140 nM (1 of 6 replicates; controls 0 of 18)
* S25Q/Y31C/W56D = 1.8 nM (6 of 6 replicates; controls 0 of 18)
* S25M/W56N/T59Q/E61M = 660 pM (6 of 6 replicates; controls 3 of 18)
* L30S/W56A/Q95G = 17 nM (6 of 6 replicates; controls 1 of 18)
* K24F/S26L/Y31P/K36F/W56H/S62D = 1.3 nM (6 of 6 replicates; controls 0 of 18)
* Q27I/V29E/R34V/W56E = 1.2 nM (6 of 6 replicates; controls 4 of 18)
* S25L/V29W/N35V/W56G = 680 pM (6 of 6 replicates; controls 2 of 18)
* S25C/N37S = 100 nM (1 of 6 replicates; controls 0 of 18)
* S25Q/W56D/H98M = 540 pM (6 of 6 replicates; controls 0 of 18)
* V29F/W56G/Q96S/P101T = nd (0 of 6 replicates; controls 0 of 18)
* S25L/V29W/S38A/W56N = 530 pM (6 of 6 replicates; controls 3 of 18)
* S25Q/L30G/W56D/E61S = 470 pM (6 of 6 replicates; controls 2 of 18)
* S25M/Y31M/S33H/W56D/H98W = 3.0 nM (6 of 6 replicates; controls 3 of 18)
* K24H/Q27P/L30E/W56N/T59W = 4.0 nM (6 of 6 replicates; controls 2 of 18)
* S26G/S28G/V29G/W56G/S103H = 1.1 nM (6 of 6 replicates; controls 0 of 18)
* S28G/L30V/R34T/W56N = 12 nM (6 of 6 replicates; controls 2 of 18)
* Q27P/N37A/W56D = 210 nM (1 of 6 replicates; controls 0 of 18)
* K24H/S25F/N35P/V39I = 61 nM (6 of 6 replicates; controls 1 of 18)
* S25F/W56E = 490 pM (12 of 12 replicates; controls 1 of 36)
* S25M/V29F/R60P/Q96V = 250 nM (1 of 6 replicates; controls 0 of 18)
* S25L/S26L/W56E/S62D/R99Q = 2.7 nM (6 of 6 replicates; controls 0 of 18)
* S25L/S26R/V29T/W56G/Y97K = 850 pM (6 of 6 replicates; controls 1 of 18)
* S25I/S28G/V29A/W56G = 650 pM (6 of 6 replicates; controls 3 of 18)
* S25F/Y31F/W56D/T59F = 770 pM (6 of 6 replicates; controls 1 of 18)
* S25V/Y31L/R34T/W56A = 5.1 nM (6 of 6 replicates; controls 0 of 18)
* Q27W/V29W/R34G/W56H/S62D = 1.9 nM (6 of 6 replicates; controls 1 of 18)
* S25Y/S28Q/V29M/S38N/W56E = 640 pM (6 of 6 replicates; controls 0 of 18)
* S26L/W56Q/S62Q/R99F = nd (0 of 6 replicates; controls 0 of 18)
* S25V/S26P/R34S/H98W/L100F = 58 nM (5 of 6 replicates; controls 1 of 18)
* S28E/W56N = 1.6 nM (6 of 6 replicates; controls 1 of 18)
* S25L/V29K/L30E/N35Q/W56N/S62V = 1.3 nM (6 of 6 replicates; controls 0 of 18)
* S26P/H98Q = 7.2 nM (5 of 6 replicates; controls 0 of 18)
* S25L/S38A/W56N = 320 pM (6 of 6 replicates; controls 1 of 18)
* V29E/K36F/W56G = 1.5 nM (6 of 6 replicates; controls 0 of 18)
* S26C/R34H/W56S = 3.2 nM (6 of 6 replicates; controls 0 of 18)
* S25V/S26R/V29N/W56N = 1.3 nM (6 of 6 replicates; controls 0 of 18)
* S25L/S26P/V29Q/L30D/W56N = 430 pM (6 of 6 replicates; controls 1 of 18)
* S25V/S26R/V29T/W56N/R99M = 390 pM (6 of 6 replicates; controls 2 of 18)
* S25C/Y31F/S33P/W56D = 4.3 nM (6 of 6 replicates; controls 0 of 18)
* S25L/Q27W/S28V/W56N = 4.0 nM (6 of 6 replicates; controls 0 of 18)
* Q27F/V29Q/S33N/W56S/T59Q = 1.4 nM (6 of 6 replicates; controls 0 of 18)
* S25V/V29N/Y31M/W56E = 670 pM (6 of 6 replicates; controls 1 of 18)
* K24E/Y31F/W56D/S58C = 3.0 nM (6 of 6 replicates; controls 3 of 18)
* E32D/L100E = nd (0 of 6 replicates; controls 0 of 18)
* K24A/E61V = 41 nM (3 of 6 replicates; controls 2 of 18)

Top 3 of the variants detected in all replicates, tightest first:

changes,apparent Kd,detected,signal with controls
S25L/S38A/W56N,320 pM,6 of 6,1 of 18
S25V/S26R/V29T/W56N/R99M,390 pM,6 of 6,2 of 18
S25L/S26P/V29Q/L30D/W56N,430 pM,6 of 6,1 of 18

The parent sequence was in this pool as ten entries: three were never detected, three once, and four in most replicates, with averages from 2.2 nM to 240 nM.
In the paper, a design with two or fewer of six values counts as a poor binder.
Empty control strains, which show no peptide, gave a signal in 4% of pairings with all light chain designs; the median was 430 nM and 95% of these signals were weaker than 38 nM. No background was subtracted. For each scFv, signals with the empty controls are counted beside the result.
A sequence that the file lists under several names has all its replicates pooled.